The record followed here is publication PMC10326257 (Acta Pharmaceutica Sinica. B, 2023).

This test relates to c-MET^Y1230H and c-MET^D1228N. Briefly: Western blot of c-MET and p-c-MET in Y1230H- or D1228N-EBC1 and Hs746T cells. The format is cell-based. The note with it: 1000 nmol/L, 48 h.

Consider `CN1CCC(COc2cnc(-c3cccc(Cn4nc(-c5cccc(C#N)c5)ccc4=O)c3)nc2)CC1` [Tepotinib], for which the “c-MET and p-c-MET level (Western blot)” value is “partially inhibited p-c-MET level”.
